Drawing on PubChem BioAssay AID720488 (Milwaukee Institute for Drug Discovery, 2013), this text covers fluorescence interference ratio for 1 compound.

The entries are a selection whose mix differs from that of the whole data set. Some tests of the compounds listed are not included; inactive here does not mean inactive elsewhere. The source made the active and inactive calls.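 The calls were made as follows: active = compound fluorescence over control fluorescence at most 0.8, a quencher, or at least a set upper limit, an enhancer; inactive = ratio between 0.8 and the set upper limit.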

The nature of this assay: Cy5 fluorescence quenchers or enhancers, artefact control for HCV NS3 helicase inhibitor project, biochemical, ChemBridge library, Cy5 readout (AID 720488). To be noted: Cy5-dT15 DNA with NS3h, at 100 µM, actives lie on both sides, signal over control mean, under 1 quenches.
Consider `COc1ccc(OC)c(C=C(C#N)C#N)c1`, for which the fluorescence interference ratio was inactive: 0.998.
